Measurements published in paper PMC3014402.

Target: Carbonic anhydrase IX (human (endogenous in MDA-MB-231)) (UniProt Q16790)
Assay: SDS-PAGE under non-reducing and reducing conditions with western blot

- stoichiometry N: 2
Substance: Carbonic anhydrase IX (from UniProt Q16790 38-459) (enzyme)
